Assay results published in patent US20060264455A1 (priority 2005, published 2006).
Like-named read-outs stand apart in the source and are kept apart here.

Key:
[1] = test system: formalin-induced paw-licking; assay: Formalin test (paw licking/biting) in mice; format: in vivo; conditions: 1 mg/kg i.p., one value per animal #01-08
Method: The formalin test for antinociceptive activity is described in numerous publications, e.g., Hunskaar, S., O. B. Fasmer, and K. Hole, J. Neurosci. […] The formalin test is accepted as an art recognized model of persistent clinical pain.
Male Swiss Webster NIH mice (20-30 g; Harlan, San Diego, Calif.) were used in the experiments described herein. Food was withdrawn on the day of experiment. Mice were placed in Plexiglass jars for at least 1 hour to accommodate to the environment. Following the accommodation period, mice were weighed and given either a huperzine compound administered intraperitoneal (i.p.) or oral (p.o.), or the appropriate volume of vehicle (10% Tween-80). Fifteen minutes after the i.p. dosing, and 30 minutes after the p.o. dosing mice were injected with formalin (20 μL of 5% formaldehyde solution in saline) into the dorsal surface of the right hind paw. Mice were transferred to the Plexiglass jars and monitored for the amount of time spent licking or biting the injected paw. Periods of licking and biting were recorded in 5 minute intervals for 40 minutes after the formalin injection. All experiments were done in a blinded manner. The early phase (acute) of the formalin response is measured as licking/biting between 0-5 minutes, and the late phase (inflammatory) is measured from 10-40 minutes. Differences between vehicle and drug treated groups are analyzed by one-way analysis of variance (ANOVA). A P value<0.05 is considered significant.
Fifteen minutes after the i.p. dosing, mice were injected with formalin (20 μL of 5% formaldehyde solution in saline) into the dorsal surface of the right hind paw. Periods of licking and biting were recorded in 5 minute intervals for 40 minutes after the formalin injection as shown below in Tables 1 and 2. All experiments were done according to the art-recognized Anticonvulsant Screening Program of the NINDS at the University of Utah.
Duration of paw licking in the tables below is expressed in seconds.

motor skills on rotorod = assay: Toxicity Model (TOX), rotorod, mice; format: in vivo; conditions: I.P., 5 mg/kg
Text: To investigate the neurotoxicity levels of the huperzine compounds, the Toxicity Model (TOX) using a rotorod is employed. The animals (e.g., mice) were trained to stand on an accelerating rotorod rotating at 10 rev min^−1 with a diameter of 3.2 cm. The trained animal can be given the huperzine compound at various doses and the effect of huperzine on their motor skills can be determined. The dose at which the animals fell off the rotorod is the toxic dose.
The neurotoxicity of huperzine was tested in the rotorod test. The mice were trained to stand on an accelerating rotorod rotating at 10 rev min^−1 with a diameter of 3.2 cm. The trained animals were given the huperzine at various doses and the effect of huperzine on their motor skills was determined. The dose at which the animals fell off the rotorod was the toxic dose.

[2] = test system: 6 Hz limbic seizures (corneal stimulation); conditions: IP, 1 h
[3] = test system: minimal motor impairment (ataxia, abnormal gait and stance); assay: Toxicity (TOX) / minimal motor impairment, rats; conditions: oral, 1 mg/kg

C/C=C1\[C@H]2C=C(C)C[C@]1(N)c1ccc(=O)[nH]c1C2 [Huperzine A]
Duration of mice paw licking ([1]; 0 min): 0.00 s | Duration of mice paw licking ([1]; 5 min): 0.00 s | Duration of mice paw licking ([1]; 10 min): 0.00 s | Duration of mice paw licking ([1]; 15 min): 0.00 s | Duration of mice paw licking ([1]; 20 min): 0.00 s | Duration of mice paw licking ([1]; 25 min): 0.00 s | Duration of mice paw licking ([1]; 30 min): 0.00 s | Duration of mice paw licking ([1]; 35 min): 0.00 s | Duration of mice paw licking ([1]; 40 min): 0.00 s | N/F, TOX time course (motor skills on rotorod; 0.5 h): 4/4 | N/F, TOX time course (motor skills on rotorod; 1.0 h): 4/4 | N/F, TOX time course (motor skills on rotorod; 2.0 h): 4/4 | N/F, TOX time course (motor skills on rotorod; 4.0 h): 4/4 | N/F, TOX time course (motor skills on rotorod; 6.0 h): 4/4 | N/F, ED50 Biological Response ([2]; 22 mA, 0.09 mg/kg): 1/8 | N/F, ED50 Biological Response ([2]; 22 mA, 0.175 mg/kg): 2/8 | N/F, ED50 Biological Response ([2]; 22 mA, 0.35 mg/kg): 5/8 | N/F, ED50 Biological Response ([2]; 22 mA, 0.7 mg/kg): 7/8 | N/F, ED50 Biological Response ([2]; 32 mA, 0.2 mg/kg): 0/8 | N/F, ED50 Biological Response ([2]; 32 mA, 0.3 mg/kg): 2/8 | N/F, ED50 Biological Response ([2]; 32 mA, 0.415 mg/kg): 7/8 | N/F, ED50 Biological Response ([2]; 32 mA, 0.83 mg/kg): 8/8 | N/F, TOX time course ([3]; 0.25 h): 0/4 | N/F, TOX time course ([3]; 0.5 h): 0/4 | N/F, TOX time course ([3]; 1.0 h): 0/4 | N/F, TOX time course ([3]; 2.0 h): 0/4 | N/F, TOX time course ([3]; 4.0 h): 0/4 | N/F, TOX time course ([3]; 6.0 h): 0/4
